This assay has as its target Human BACE-1 (Homo sapiens, UniProt P56817). Kind of assay: Test 1: Inhibition of Human BACE-1. To be noted: recombinant BACE-1 (extracellular domain), acetate buffer pH 4.5, 1 hour with test compound at room temperature, fluorescence-quenched peptide substrate. Type of assay: biochemical.

By UniProt entry, the sequences of proteins in these tests, tags left out. Residues count along the entry.
UniProt P56817, 46-457 limits assumed: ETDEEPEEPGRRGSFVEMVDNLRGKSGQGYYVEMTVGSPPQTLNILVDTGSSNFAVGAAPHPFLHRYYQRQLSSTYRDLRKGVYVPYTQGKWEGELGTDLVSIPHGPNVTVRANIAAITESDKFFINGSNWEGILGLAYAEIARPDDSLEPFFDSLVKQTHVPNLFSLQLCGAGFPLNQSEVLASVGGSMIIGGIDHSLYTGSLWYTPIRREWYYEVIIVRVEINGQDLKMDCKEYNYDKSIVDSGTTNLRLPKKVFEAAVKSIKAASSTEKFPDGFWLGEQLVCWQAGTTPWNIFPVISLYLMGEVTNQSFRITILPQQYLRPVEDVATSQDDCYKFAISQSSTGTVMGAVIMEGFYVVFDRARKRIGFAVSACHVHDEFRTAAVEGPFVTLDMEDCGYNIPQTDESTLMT

The values below come from patent publication US20120172359A1 (NOVARTIS AG, priority 2010, published 2012).

Counter-ions that a name gives are not always drawn.

As usually defined, the IC50 is the concentration that inhibits the measured activity by half. On to `CC1(c2cc(NC(=O)c3ccc(Br)cn3)ccc2F)COCC(N)=N1` (stereo not shown) [Example 60, 5-Bromo-pyridine-2-carboxylic acid [3-(5-amino-3-methyl-3,6-dihydro-2H-[1,4]oxazin-3-yl)-4-fluoro-phenyl]-amide hydrochloride], for which the IC50 was 58 nM.
